Source: patent US9809634B2, “Composition comprising branched multipeptide vaccine and vaccine comprising the same” (INDUSTRY FOUNDATION OF CHONNAM NATIONAL UNIVERSITY, priority 2015, dated 2017)

System: T2 cells
Test: Binding capacity to T-lymphocyte of branched multi-peptide and stability after binding (T2 cells, Brefeldin A)
Format: cell-based, human
Conditions: T2 cells treated with Brefeldin A, measured at 0, 2, 4, 8 and 24 hours; compared to the mixture of single oligopeptides (multipeptide-cocktail); FIG. 4

“branched multi-peptide: branched peptide structure produced from three peptides of BIRC5 96 methionine, CD99 9, and ERBB2 369, using mini-PEG2” was tested, and the “binding capacity to T-lymphocyte over time (stability after binding)” value was “remarkably and stably maintained over time”.
